{
  "source": "patent US20070264354A1",
  "about": "“TREATMENT OF A WOUND WITH A VASODILATOR” (priority 2006, published 2007)",
  "origin": "cited, not measured here",
  "key": {"human skin [1]": {"test_system": "human skin", "conditions": "cited from earlier work"}, "human skin [2]": {"test_system": "human skin", "conditions": "microdialysis (Weidner et al, 2000); cited from earlier work"}, "[3]": {"conditions": "Brain and Cambridge, 1996; cited from earlier work"}, "musculocutaneous flap": {"test_system": "musculocutaneous flap", "conditions": "rat (Kjartannson et al, 1988b); cited from earlier work"}, "skin flap": {"test_system": "skin flap", "conditions": "pig (Heden et al, 1989); cited from earlier work"}, "[4]": {"test_system": "hamster cheek pouch, rat paw and human skin", "conditions": "histamine, leukotrine; nanomolar dose range (Raud et al, 1991); cited from earlier work"}, "[5]": {"test_system": "surgical or traumatic flaps", "conditions": "intravenous, patients with ischemia and/or venous stasis (Jernbeck and Dalsgaard, 1993); cited from earlier work"}, "wounds": {"test_system": "wounds", "conditions": "intradermally around wounds, rats (Engin, 1998); cited from earlier work"}, "venous stasis ulcers": {"test_system": "venous stasis ulcers", "conditions": "CGRP and VIP given together by iontophoresis (Gherardini et al, 1998b); cited from earlier work"}},
  "data": [
    {"substance": "CGRP: 37 amino acid peptide, potent endogenous vasodilator of the microcirculation", "values": [
      {"measurement": "sensory effects (pain, itch producing)", "setting": "human skin [1]; Weidner and Wallengren", "value": "does not have sensory effects"},
      {"measurement": "blood flow (flare reaction)", "setting": "human skin [1]; intradermal, femtomole doses, humans (Brain et al, 1985)", "value": "increased blood flow"},
      {"measurement": "vasodilatation", "setting": "human skin [2]", "value": "dose-dependent increases in vasodilatation"},
      {"measurement": "stability in interstitial tissue fluid", "setting": "[3]", "value": "stable"},
      {"measurement": "cutaneous blood flow in flap", "setting": "musculocutaneous flap", "value": "increased cutaneous blood flow"},
      {"measurement": "skin flap survival", "setting": "skin flap", "value": "increased skin flap survival"},
      {"measurement": "edema-promoting action of inflammatory mediators", "setting": "[4]", "value": "inhibit edema-promoting action of inflammatory mediators"},
      {"measurement": "tissue circulation by LDF", "setting": "[5]", "value": "improved tissue circulation"},
      {"measurement": "wound healing, contraction rate", "setting": "wounds", "value": "increasing the contraction rate"},
      {"measurement": "healing of venous stasis ulcers", "setting": "venous stasis ulcers", "value": "improved healing of venous stasis ulcers"}
    ]}
  ]
}
